SMILES strings stand for the structures. Calls of active or inactive are those of the source.

Chains of the proteins cited; added tags and fusions are not shown. Lines headed by an entry give the natural chain unless they say otherwise; changes in a name come on top.
UniProt Q9HC29, whole entry: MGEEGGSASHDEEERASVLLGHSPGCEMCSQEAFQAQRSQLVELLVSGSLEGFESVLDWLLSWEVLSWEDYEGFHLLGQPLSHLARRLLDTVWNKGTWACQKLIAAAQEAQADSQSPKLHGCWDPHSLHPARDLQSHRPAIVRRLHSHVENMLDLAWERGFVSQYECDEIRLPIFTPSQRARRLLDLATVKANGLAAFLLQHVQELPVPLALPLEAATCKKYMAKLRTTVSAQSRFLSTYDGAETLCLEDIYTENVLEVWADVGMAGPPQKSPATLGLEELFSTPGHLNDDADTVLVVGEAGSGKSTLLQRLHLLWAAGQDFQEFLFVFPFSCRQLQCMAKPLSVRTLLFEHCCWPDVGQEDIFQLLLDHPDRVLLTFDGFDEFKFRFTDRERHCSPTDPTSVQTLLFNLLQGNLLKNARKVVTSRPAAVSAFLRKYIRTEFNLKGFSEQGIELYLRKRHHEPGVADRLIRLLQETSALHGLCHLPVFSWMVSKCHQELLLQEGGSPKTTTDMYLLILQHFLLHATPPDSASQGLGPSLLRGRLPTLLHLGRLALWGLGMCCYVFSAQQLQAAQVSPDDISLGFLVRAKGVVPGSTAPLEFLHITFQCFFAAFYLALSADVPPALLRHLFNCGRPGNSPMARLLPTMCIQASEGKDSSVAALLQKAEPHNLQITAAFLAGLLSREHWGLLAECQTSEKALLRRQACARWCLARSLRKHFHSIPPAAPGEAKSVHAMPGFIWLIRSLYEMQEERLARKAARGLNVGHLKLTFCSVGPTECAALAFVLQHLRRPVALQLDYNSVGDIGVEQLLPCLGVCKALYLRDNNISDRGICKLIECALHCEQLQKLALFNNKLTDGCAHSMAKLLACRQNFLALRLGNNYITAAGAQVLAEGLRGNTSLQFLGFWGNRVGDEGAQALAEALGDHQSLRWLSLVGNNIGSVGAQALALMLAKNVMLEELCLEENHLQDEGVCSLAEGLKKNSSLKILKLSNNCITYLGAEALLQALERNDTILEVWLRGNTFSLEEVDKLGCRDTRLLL
UniProt P98170, whole entry: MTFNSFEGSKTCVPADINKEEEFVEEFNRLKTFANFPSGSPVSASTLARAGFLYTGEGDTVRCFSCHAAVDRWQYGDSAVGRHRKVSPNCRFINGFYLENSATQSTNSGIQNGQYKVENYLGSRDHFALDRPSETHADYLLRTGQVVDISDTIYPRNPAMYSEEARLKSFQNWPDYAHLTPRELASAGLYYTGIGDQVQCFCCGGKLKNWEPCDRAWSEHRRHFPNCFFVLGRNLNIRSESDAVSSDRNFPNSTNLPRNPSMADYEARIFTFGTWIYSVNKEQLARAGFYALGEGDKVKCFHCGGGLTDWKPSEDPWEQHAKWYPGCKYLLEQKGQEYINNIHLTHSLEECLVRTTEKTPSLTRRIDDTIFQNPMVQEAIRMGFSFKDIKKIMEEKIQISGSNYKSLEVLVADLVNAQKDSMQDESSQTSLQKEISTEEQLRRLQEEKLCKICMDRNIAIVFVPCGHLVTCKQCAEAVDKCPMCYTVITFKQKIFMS
UniProt P41145: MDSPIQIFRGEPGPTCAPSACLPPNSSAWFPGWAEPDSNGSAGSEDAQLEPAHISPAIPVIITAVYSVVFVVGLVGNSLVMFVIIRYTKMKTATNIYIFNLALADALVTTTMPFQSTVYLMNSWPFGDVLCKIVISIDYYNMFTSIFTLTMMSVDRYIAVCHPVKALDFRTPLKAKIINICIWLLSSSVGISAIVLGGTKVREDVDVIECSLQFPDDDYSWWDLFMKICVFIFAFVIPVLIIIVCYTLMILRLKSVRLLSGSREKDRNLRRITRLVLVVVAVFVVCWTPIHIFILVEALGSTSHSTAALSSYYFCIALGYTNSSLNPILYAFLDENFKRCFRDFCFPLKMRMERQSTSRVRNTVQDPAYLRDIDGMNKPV

The text below walks through data of ChEMBL document CHEMBL1201862, “PubChem BioAssay data set” (2004).

In test [1] the target is Nucleotide-binding oligomerization domain-containing protein 2 (Homo sapiens, UniProt Q9HC29). Briefly: PubChem AID 2334. It counts as functional.
In a further test the target is Prothrombin (Homo sapiens, UniProt P00734). Briefly: Thrombin 1536 HTS Dose Response Confirmation. [Related pubchem assays: 1046 (Thrombin 1536 HTS; hits were confirmed in this assay)]. The class given is functional.
Test [2] deals with T1, E3 ubiquitin-protein ligase XIAP (Homo sapiens, UniProt P98170). Description: SAR analysis of Antagonists of XIAP-Bir3 domain of IAP-family anti-apoptotic proteins. [Related pubchem assays (depositor defined):AID1018, AID1449, AID1513, AID1514, AID1638].
Test [3] deals with T1, E3 ubiquitin-protein ligase XIAP. Description: SAR analysis of Antagonists of IAP-family anti-apoptotic proteins. [Related pubchem assays (depositor defined):AID1018, AID1449, AID1513, AID1514, AID1638].
Test [4] has as its target Kappa-type opioid receptor (Homo sapiens, UniProt P41145). Briefly: SAR analysis of Antagonists of the Kappa Opioid Receptor (KOR) using an Image-Based Assay - Set 4. [Related pubchem assays (depositor defined):AID1777, AID1785]. It counts as functional.

As a reminder, the IC50 is the concentration needed to halve the response being measured. In the case of `Nc1nc2ccccc2n1Cc1ccc(Cl)cc1`, the concentration for half-maximal inhibition (IC50) in test [1] was active: 11.7 µM.

Turning to `CCC(=O)n1nc(-c2cccnc2)nc1NCc1cccs1`, the IC50 at Prothrombin is active: 0.00236 µM.

With `CN[C@@H](C)C(=O)N[C@H](C(=O)N1CCC[C@H]1C(=O)NC1CCCc2ccccc21)C(C)C` (stereo not given in full), the IC50 was active: 0.46 µM in test [2] and active: 4.2 µM in test [3].

With `COc1ccc(N2CCN(CCCNC(=O)Cn3c(=O)c4cccn4c4c(C)ccnc43)CC2)cc1`, the IC50 in test [4] is active: 0.00319 µM.
